From US20170248602A1 (ALLERGAN, published 2017)

B1: α-SNAP-25 mouse monoclonal antibody 1D3B8 (antibody, V domains shown)
VH: QVKLQESGAELVKPGASVKISCKASGYIFTDHALHWVRQKPEQGLEWIGYIFPGNGNIEYNEKFKGKATLTADKSSSTAYMQLNSLTSGDSAMYFCKKMDYWGQGTTVTVSS
VL: DVLMTQTPLSLPVSLGDQASISCRSSQSIVHSNGNTYLEWYLQKPGQSPKLLIYKVSNRFSGVPDRFSGSGSGTDFTLKISRVEAEDLGVYYCFQGSHVPPTFGAGTKLELKR
B2: α-SNAP-25 mouse monoclonal antibody 2E2A6 (antibody, V domains shown)
VH: QVQLQQSDAELVKPGASVKISCRASGYTFTDHSIHWVKQQPGQGLEWIGYIFPGNGNIEYNDKFKGKATLTADKSSGTAYMQLNSLTSEDSAVYFCKRMGYWGQGTSVTVSS
VL: DVLMTQTPLTLSVTIGQPASISCKSSQSLLYTNGKTYLTWLFQRPGQSPKRLIYLVSELDSGVPDRFSGSGSGTDFTLEITRVEAEDLGVYYCLQSAHFPFTFGSGTKLEIKR
B3: α-SNAP-25 mouse monoclonal antibody 3C1A5 (antibody, V domains shown)
VH: QVKLQESGAELVKPGASVKISCKASGYTFTDHSIHWVKQKPGQGLEWIGYLFPGNGNFEYNEKFKGKATLTADKSSSTVYMYLNSLTSEDSAVYFCKRMGYWGQGTTVTVSS
VL: B2 VL with L3V, Y31N, F42I, K50Q, E58K, E79K, T81S, A97S

What follows are binders tested against SNAP-25 peptide comprising amino acids 134-206 of SEQ ID NO:5 (human) (assay: SPR (BIAcore 3000), peptide on CM5 chip).

Row | Binder | binding result
1 | B1 | no binding (tested: 125 nM)
2 | B2 | no binding (tested: 10 µM)
3 | B3 | no binding (tested: 100 nM)

Changes are numbered by the printed parent chain.
